Experimental data as given in ChEMBL document CHEMBL5038666, “Discovery of DNA-Targeting HDAC Inhibitors with Potent Antitumor Efficacy In Vivo That Trigger Antitumor Immunity” (J Med Chem, 2022).

Tests used:
[1] = system: Calf thymus DNA; details: Bos taurus; dose 500.0 µM
[2] = system: Calf thymus DNA; assay: Binding affinity to calf thymus DNA assessed as dissociation constant at 500 microM by isothermal titration calorimetric analysis; type: nucleic-acid assay, Bos taurus
[3] = system: Calf thymus DNA; details: Bos taurus; dose 500.0 µM; remark: listed apart in the source

SMILES | deltaH [1] [kcal/mol] | Kd [2] [µM] | deltaG [3] [kcal/mol]
O=C(CCCCCCOc1cccc(-c2nc3ccccc3[nH]2)c1)NO | -80 | 43.9 | -5.95
O=C(CCCCCCOc1ccc(-c2nc3ccc(-c4nc5ccccc5[nH]4)cc3[nH]2)cc1)NO | -51.4 | 31.4 | -6.15
